Values quoted from earlier work as cited in patent publication US20100003309A1.
Some compounds may have been tested in ways that are not shown here.

SMILES: CCC(=O)N(c1ccccc1)C1CCN(CCc2ccccc2)CC1
- remaining fraction dissolved in saliva and digested, slower digestive absorption (Fentanyl preparations for oral administration): 75%
- absorption by the transmucosal route (Fentanyl preparations for oral administration, transmucosal route): 25%
- time of transmucosal absorption (time in which the 25 percent is absorbed by the transmucosal route): less than 5 minutes
